Biological target: Cannabinoid receptor 2 (Homo sapiens, UniProt P34972)
Assay: Displacement of [3H]CP55940 from recombinant human CB2 receptor expressed in HEK293 cell membranes at 10 uM measured after 90 mins relative to control

Sequences of proteins named here, by UniProt entry; tags and fusion partners are left off.
UniProt P34972, whole entry: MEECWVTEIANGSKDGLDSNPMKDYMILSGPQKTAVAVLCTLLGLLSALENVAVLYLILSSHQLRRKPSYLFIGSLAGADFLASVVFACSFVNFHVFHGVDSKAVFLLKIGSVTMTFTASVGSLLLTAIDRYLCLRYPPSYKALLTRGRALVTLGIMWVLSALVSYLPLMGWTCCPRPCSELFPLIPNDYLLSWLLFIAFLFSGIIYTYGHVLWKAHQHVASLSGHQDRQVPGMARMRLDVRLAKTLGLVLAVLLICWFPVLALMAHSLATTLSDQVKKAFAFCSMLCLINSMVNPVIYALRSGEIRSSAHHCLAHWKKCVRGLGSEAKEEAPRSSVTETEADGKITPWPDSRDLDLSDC

Cc1ccc2c(c1)nc(Cn1nnc3ccccc31)n2CCN(C)C
inhibition: 17.3%

Reference: ChEMBL document CHEMBL4368878 (Medchemcomm, 2018)
